AlphaSeq binding of Ab-95 light chain variants to a spike HR2 peptide

From the AlphaSeq antibody data of Engelhart et al. 2022 (doi:10.1038/s41597-022-01779-4), copy in the FLAb collection.

All variants were tested on one target, the spike HR2 peptide PDVDLGDISGINAS (SARS-CoV-2).

Each scFv is VH, a (GGGGS)3 linker, VL, as in the parent Ab-95, and differs from it in the CDRs of the light chain only.
VH: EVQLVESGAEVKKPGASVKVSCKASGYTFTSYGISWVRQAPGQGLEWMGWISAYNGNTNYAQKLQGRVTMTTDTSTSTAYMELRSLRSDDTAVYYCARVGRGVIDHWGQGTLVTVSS
VL: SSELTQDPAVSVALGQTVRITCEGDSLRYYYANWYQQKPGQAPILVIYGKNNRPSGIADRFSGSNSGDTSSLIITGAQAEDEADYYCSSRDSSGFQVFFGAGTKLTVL

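The parent was found by panning a naive human phage display library on the peptide. AAYL52 was designed without a model: most single CDR substitutions and a random sample of double and triple ones. The assay is AlphaSeq: two haploid yeast populations carry antibody and antigen on their surface. The frequency of each diploid, read from paired DNA barcodes, reflects how well the two displayed proteins bind. Read counts were normalised to the haploid input and turned into Kd by a linear fit to BCL2-family pairs of known affinity, for each replicate. Each pool was mated in three replicate cultures.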

Changes read parent residue, position, new residue, counted from the first residue of the VL shown.
Every variant below is changed at N33 of the VL (sequential numbering).
Scale: log10 of Kd in nM, estimated from mating counts; low values are strong binders.
Averages over replicates are reported, and they cover detected replicates only.
Where no diploid with the target was found in any replicate, the entry reads "no signal": below detection, most likely a poor binder, though not proof of it.
Entries are sorted by rising average, undetected variants last.
Parent in this assay: reference entry 2.31, copy in this library 2.25.
Three control strains display no target. For library AAYL52, 28% of the pairings with them gave a signal, with a median of 3.91 and one signal in twenty below 2.90, so weak values seen in few replicates may be background.

changes	log10 Kd (nM), mean	replicates with signal
N33R/S55D/Q96I	1.69	3 of 3
G24A/N33G/R53V	2.00	3 of 3
R28Q/Y30C/N33S	2.25	3 of 3
N33Y/N51V/S89Y	2.37	3 of 3
A32Q/N33C/N52L	2.37	3 of 3
N33W/S93C	2.54	3 of 3
R28P/Y31H/N33T	2.64	1 of 3
Y31N/N33Y/P54R	3.00	3 of 3
N33A/N51H	3.05	3 of 3
N33S/N52G	3.12	3 of 3
N33A/N52T/Q96A	3.23	3 of 3
L27S/N33S/F98C	3.35	1 of 3
A32D/N33M/G94E	3.35	1 of 3
R28P/N33L/S55H	3.37	1 of 3
D25M/S26W/N33P	3.48	1 of 3
G24F/N33A/G94I	3.55	1 of 3
Y29K/N33L/S89A	3.56	1 of 3
N33V/S88Q/R90A	3.58	1 of 3
Y30C/N33M/S93E	3.61	3 of 3
S26K/N33Q/S55Q	3.67	2 of 3
N33D/G49K/N52R	3.67	2 of 3
S26D/N33E/F98P	3.67	2 of 3
D25N/Y30I/N33E	3.69	2 of 3
Y31D/N33L	3.71	3 of 3
D25I/N33Q/S88A	3.75	2 of 3
Y31I/N33W/G94D	3.75	2 of 3
N33F/S89K	3.90	2 of 3
R28E/N33E/K50R	3.90	3 of 3
Y30M/N33M/S92E	3.92	3 of 3
R28I/N33K/Q96M	3.95	1 of 3
A32G/N33S/S88Q	3.99	3 of 3
L27P/N33A/S55F	4.00	2 of 3
N33L/G49M/S92E	4.03	2 of 3
N33V/S55E/F95T	4.04	1 of 3
Y30D/N33A/G94P	4.07	1 of 3
D25W/N33L/S92P	4.09	1 of 3
N33W/S93H/V97T	4.12	3 of 3
N33T/P54C	4.14	1 of 3
E23C/N33P/G49E	4.17	2 of 3
N33S/N52R/R53Q	4.21	2 of 3
N33I/N52C/R53D	4.22	1 of 3
G24P/N33M/F95A	4.25	3 of 3
E23I/N33I/K50E	4.34	1 of 3
N33P/P54S/R90K	4.38	2 of 3
N33R/R53K/F98M	4.39	2 of 3
Y29L/N33A/G94P	4.44	2 of 3
N33L/K50S/P54M	4.48	1 of 3
N33S/N52R/S93H	4.55	3 of 3
N33Q/S88Y/V97W	4.59	1 of 3
N33E/K50P/S92Q	4.67	2 of 3
N33V/R53I	4.67	2 of 3
N33I/P54G/F95L	4.79	2 of 3
R28D/N33T/G49I	4.83	1 of 3
L27A/N33V/F98Q	4.86	1 of 3
N33D/S92Y/Q96V	4.90	2 of 3
N33E/P54F/S89K	5.02	3 of 3
D25N/N33V/S55R	5.07	1 of 3
L27F/N33P/N52R	5.64	1 of 3
Y30C/N33S/G49L	5.75	2 of 3
Y31D/N33A/R90L	no signal	0 of 3
Y30N/N33Y/R90E	no signal	0 of 3
L27C/N33S/F95S	no signal	0 of 3
N33Y/P54C/F95W	no signal	0 of 3
N33G/D91L/F98R	no signal	0 of 3
Y31L/N33A/R53F	no signal	0 of 3
N33I/K50T/P54I	no signal	0 of 3
E23K/N33E/Q96W	no signal	0 of 3
S26Y/N33G/R53S	no signal	0 of 3
N33F/S92E/V97P	no signal	0 of 3
L27A/N33S	no signal	0 of 3

The 5 strongest on average among those seen in every replicate, once more:

| changes | log10 Kd (nM), mean | replicates with signal |
|---|---|---|
| N33R/S55D/Q96I | 1.69 | 3 of 3 |
| G24A/N33G/R53V | 2.00 | 3 of 3 |
| R28Q/Y30C/N33S | 2.25 | 3 of 3 |
| N33Y/N51V/S89Y | 2.37 | 3 of 3 |
| A32Q/N33C/N52L | 2.37 | 3 of 3 |